Data published in patent US8962670B2, “Anti-cancer agents” (UWM Research Foundation, Inc., priority 2011, dated 2015).

Legend:
OVCAR-8 (Ovarian) = assay: NCI 60 panel GI50; assay type: cell-based, human
[1] = tested on: NCI-H460 (Non-small Cell Lung Cancer cells); assay: Cancer cell growth inhibition (Example 14); conditions: 10 μM, 48 h
Description: (§1) The abilities of compounds 37, 38 and 40 to inhibit cancer cell growth were evaluated. Results are illustrated in FIG. 4A: Four human cancer cell lines (SR, NCI-H460, CAKI-1, and SN12C) were incubated with 10 μM of compounds 40, 38 and 37 for 48 h (grey bar—37; black bar—40; lined bar—38). […] .

[2] = tested on: SN12C (Renal Cancer cells); assay: Cancer cell growth inhibition (Example 14); conditions: 10 μM, 48 h
Description: as §1

SR cells (Leukemia cell) = assay: Cancer cell growth inhibition (Example 14); conditions: 10 μM, 48 h
Description: as §1

[3] = tested on: CAKI-1 (Renal Cancer cells); assay: Cancer cell growth inhibition (Example 14); conditions: 10 μM, 48 h
Description: as §1

Row | SMILES | GI50 (OVCAR-8 (Ovarian)) [µM] | cross-linking yield (49 mer DNA duplex 292; 50 μM H2O2 + 100 μM compound) [%] | cross-linking yield (49 mer DNA duplex 292; 100 μM H2O2 + 200 μM compound) [%] | cross-linking yield (49 mer DNA duplex 292; 250 μM H2O2 + 500 μM compound) [%] | cross-linking yield (49 mer DNA duplex 292; 500 μM H2O2 + 1.0 mM compound) [%] | cross-linking yield (49 mer DNA duplex 292; 1.0 mM H2O2 + 2.0 mM compound) [%] | cross-linking yield (49 mer DNA duplex 292; 1.5 mM H2O2 + 3.0 mM compound) [%] | cross-linking yield (49 mer DNA duplex 292; 2.0 mM H2O2 + 4.0 mM compound) [%] | concentration of H2O2 at which DNA crosslinking was observed (as low as) (49 mer DNA duplex 292; lanes 3 and 11) [µM] | inhibition [1] [%] | inhibition [2] [%] | inhibition (SR cells (Leukemia cell)) | inhibition [3] [%]
1 | OB(O)c1ccc(N(CCCl)CCCl)cc1 | 4.2 | – | – | – | – | – | – | – | – | – | – | – | –
2 | C[N+](CCCl)(CCCl)Cc1ccc(B(O)O)cc1 | – | 2.0 | 4 | 11 | 17 | 27 | 35 | 43 | 50 | 85 | 57 | about 90% | 66
3 | CC1(C)OB(c2ccc(C[N+](C)(CCCl)CCCl)cc2)OC1(C)C [Compound 40, N,N-Bis(2-chloroethyl)-N-methyl-N-[4-(4,4,5,5-tetramethyl-1,3,2-dioxaborolan-2-yl)phenyl]methanaminium bromide] | – | – | – | – | – | 28 | – | – | – | 85 | 57 | – | –

Read-outs that look alike come from different tables or passages of the source. Only a part of the results on these compounds is given; other tests are left out.
